Reference: PubChem BioAssay AID637 (SRMLSC, 2007)
The list shows a part of the results, in another mix than the full data. The source made the active and inactive calls. Rule as the data show it: active = inhibition above about 30%; inactive = the rest.

Assay: growth suppression of yeast trafficking mutant, preliminary HTS, modulators of trafficking downstream of Golgi apparatus project, 1536-format plate, OD 615 nm (AID 637)
Conditions: yeast transport mutant growth, absorbance 615 nm, 18 h; hits give high values
With `O=P(Nc1nccs1)(c1ccccc1)c1ccccc1` the inhibition was inactive: 3.65%. With `CCOP1(=S)c2c(C)nn(CCC#N)c2N=C(c2ccccc2F)N1C` (stereo not given) the inhibition was inactive: -10.7%. For `Cc1nn(-c2ccccc2)c2c1P(=O)(N1CCOCC1)N(C)C(c1ccccc1)=N2` (stereo not given), the inhibition was inactive: 17.6%. In the case of `COP1(=S)c2c(C)nn(CCC#N)c2N=C(c2ccc(F)cc2)N1C` (stereo not given), the inhibition is reported as inactive: 1.59%. With `O=C(COc1ccccc1)OC1CN2CCC1CC2` (stereo not given) the inhibition was inactive: 2.73%.
